“And” between values parts separate entries of the source, which are not always exact repeats. Identical values can stand only once. The list shows a part of the results, in another mix than the full data. The source made the active and inactive calls. Calls follow the shape of the dose curve; as a rule, active = well fitted activation curve with a large enough effect; inconclusive = small, poorly fitted or top-dose-only effect; inactive = no such curve, though single readings can be large or run the other way.
% is scaled to controls: 0 for no effect and ±100 for the full control effect.

By UniProt entry, the sequences of proteins in these tests, tags left out.
UniProt P14618, whole entry, looked up: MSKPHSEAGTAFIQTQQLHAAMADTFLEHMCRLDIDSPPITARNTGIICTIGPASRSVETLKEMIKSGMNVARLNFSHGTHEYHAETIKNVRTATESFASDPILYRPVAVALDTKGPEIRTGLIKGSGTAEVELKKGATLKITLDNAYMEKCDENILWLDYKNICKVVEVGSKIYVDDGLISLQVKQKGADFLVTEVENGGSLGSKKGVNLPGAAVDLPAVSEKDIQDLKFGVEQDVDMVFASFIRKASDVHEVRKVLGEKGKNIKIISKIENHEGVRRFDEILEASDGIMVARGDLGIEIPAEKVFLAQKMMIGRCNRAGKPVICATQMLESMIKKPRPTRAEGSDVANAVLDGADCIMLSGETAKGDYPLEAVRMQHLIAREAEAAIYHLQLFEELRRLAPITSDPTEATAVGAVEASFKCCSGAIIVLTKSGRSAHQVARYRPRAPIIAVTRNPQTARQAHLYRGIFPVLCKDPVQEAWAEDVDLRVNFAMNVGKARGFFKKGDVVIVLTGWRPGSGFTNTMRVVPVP

For the test, the target named is Pyruvate kinase PKM (Homo sapiens) (UniProt P14618). Briefly: qHTS Assay for Activators of Human Muscle isoform 2 Pyruvate Kinase. Also: nearly all actives have a fitted effect of over 55% in size. The settings on record: purified PKM2, Kinase-Glo ATP luminescence, 0% is enzyme alone, no compound; at 57.5 µM (top of the series). An excerpt: NIH Chemical Genomics Center [NCGC] Matthew G. Vander Heiden, M.D., Ph.D. [Harvard Medical School, 77 Avenue Louis Pasteur, Boston, MA 02115] MLPCN Grant: 1 R03 MH085679-01 NCGC Assay Overview: Human pyruvate kinase muscle 2 (hPK-M2) enzyme was supplied as a highly purified (>95% pure) preparation from Harvard Medical School and assayed for its ability to generate ATP from ADP using phosphoenolpyruvate (PEP) as a substrate. ATP generation was detected in a coupled reaction by luciferase-mediated luminescence, an ATP-dependent process. […] The enzyme was assayed at an intermediate level of activity to screen for both inhibitors and activators.
NCGC Assay Protocol Summary: Three uL of substrate mix (at r.t.) in assay buffer (50 mM Imidazole pH7.2, 50 mM KCl, 7 mM MgCl2, 0.01% Tween 20, 0.05% BSA) was dispensed into white solid bottom 1,536 well microtiter plates so that the final concentrations of substrates in the assay were 0.1 mM ADP and 0.5 mM PEP. 23 nL of compound were delivered by a pin tool and 1 uL of enzyme mix in assay buffer (4 degree Celsius) was added. Plates were incubated at room temperature for 1 hour. Two uL of detection mix (Kinase-Glo, Promega; at 4 degree Celsius protected from light) was added and luminescence read by a ViewLux (Perkin Elmer) at 5 second exposure/plate. Data were normalized to the uninhibited and AC100 inhibition (no enzyme). To monitor activation, the first column contained a titration of the activator, NCGC00031955-01 (16-point 1:2 dilutions in duplicate starting at 57 uM) and the first 16 rows of column 4 contained 57 uM of NCGC00031955-01.
A general note: qHTS replaces the single test concentration by a dilution series.
Take `c1nnnn1CCn1cnnn1`: the activation is inactive: 1.34%.

In the case of `CC(C)C(=O)NC(Sc1ccccc1)C(Cl)(Cl)Cl` (centres undefined), the activation is inactive: -1.61%.

For `O=P(Nc1nccs1)(c1ccccc1)c1ccccc1`, the activation is inactive: -9.23%.

Consider `O=P(Nc1nc2ccccc2s1)(c1ccccc1)c1ccccc1`, for which the activation was inactive: 1.85%.

Consider `C[C@H]1OP(=O)(Oc2ccccc2)[C@H](O)[C@H](O)[C@H]1N=[N+]=[N-]` (some centres undefined), for which the activation was inactive: 5.54%.

For `O=P(Nc1ccccn1)(c1ccc(Br)cc1)c1ccc(Br)cc1`, the activation is inactive: -8.65%.

For `O=C(OC1CN2CCC1CC2)c1cccc(Cl)c1` (centres undefined), the activation is inactive: -0.773%.

`Nc1ccc([As](=O)(O)c2ccc([N+](=O)[O-])cc2)cc1`: the activation was inactive: -4.77%.

Take `C(Cc1nn[nH]n1)Cc1nn[nH]n1`: the activation is inactive: -16.8%.

In the case of `O=[As](O)(c1ccccc1)c1ccc(O)cc1`, the activation was inactive: -0.164%.

As for `O=[N+]([O-])c1ccc(O)c(/C=N/Nc2ccc([N+](=O)[O-])cc2[N+](=O)[O-])c1`, the activation is inactive: -8.37%.

Consider `O=[N+]([O-])c1ncn(CCn2cnc([N+](=O)[O-])n2)n1`, for which the activation is inactive: 0.199%.

`CC(=O)NC(SC(=S)N(C)C)C(Cl)(Cl)Cl` (centres undefined): the activation is inactive: -0.846%.

Turning to `c1ccc(-c2nn[nH]n2)c(-c2nn[nH]n2)c1`, the activation is inactive: -0.85%.

Turning to `CCOC(=O)NC(Sc1ccccc1)C(Cl)(Cl)Cl` (centres undefined), the activation is inactive: 3%.

With `Cc1ccc(NP(=O)(Oc2cccc(C)c2)Oc2cccc(C)c2)nc1`, the activation was inactive: -12.5%.

On to `CCNC(=S)/N=C(\N)N[N+](=O)[O-]`, for which the activation was inactive: 2.64%.

On to `O=C(NC1CCS(=O)(=O)C1)NP(=S)(Oc1ccccc1)Oc1ccccc1` (centres undefined), for which the activation is inactive: 0.0363%.

`Cc1ccccc1OP(=O)(Nc1ccccn1)Oc1ccccc1C`: the activation is inactive: -3.58%.

`CN(C)C(=O)Oc1noc2ccccc12`: the activation is inactive: -6.88%.

For the molecule `O=c1c2cc([N+](=O)[O-])ccc2[nH]c2c([N+](=O)[O-])cc([N+](=O)[O-])cc12`, the activation was inactive: -0.509%.

Consider `CCC(=O)N1C2C3N(C(=O)CC)C1C1N(C(=O)CC)C(C(N1C(=O)CC)N3C(=O)CC)N2C(=O)CC`, for which the activation is inactive: 5.45%.

On to `COC(=O)c1cc2c(s1)N=C(c1ccccc1)N(C)P2(=O)N1CCOCC1` (centres undefined), for which the activation is inactive: -4.19%.

On to `Cc1ccc(OP(=O)(Nc2ccccn2)Oc2ccc(C)cc2)cc1`, for which the activation is inactive: 9.61%.

Consider `CC(=O)NC(SC(=S)N(CC(C)C)CC(C)C)C(Cl)(Cl)Cl` (centres undefined), for which the activation is inactive: 0.956%.

Consider `CC(C)(C)C(=O)NC(Sc1ccccc1)C(Cl)(Cl)Cl` (centres undefined), for which the activation is inactive: -6.76%.

In the case of `O=P1(Nc2nc3ccc(Cl)cc3s2)COc2ccccc2O1` (centres undefined), the activation is inactive: -4.43%.

With `CCOc1ccc(C2=NCC(CBr)S2)cc1` (centres undefined), the activation is inactive: 0.205%.

Consider `CC(=O)Nc1ccc(Oc2c([N+](=O)[O-])cc([N+](=O)[O-])cc2[N+](=O)[O-])cc1`, for which the activation was inactive: 7.26%.

Consider `C[C@@H]1C=CCP(=O)(Oc2ccccc2)O1` (some centres undefined), for which the activation is inactive: 11.3%.

For the molecule `C[C@H]1OP(=O)(Oc2ccccc2)C[C@@H]2O[C@@H]21` (some centres undefined), the activation is inactive: 5.55%.

Take `Clc1ccc(Cl)c(NC2=NCC(CBr)S2)c1` (centres undefined): the activation was inactive: 4.72%.

As for `CN1CCCC(OC(=O)C(c2ccccc2)c2ccccc2)C1` (centres undefined), the activation was inactive: -3.99%.

Turning to `COc1ccccc1OP(=O)(Nc1ccc(C)cn1)Oc1ccccc1OC`, the activation is inactive: 5.51%.

In the case of `Cc1ccc(OP(=O)(Nc2nccs2)Oc2ccc(C)cc2)cc1`, the activation is inactive: -0.858%.

As to `Cc1ccc(N/C(=N/P(=O)(N2CCOCC2)N2CCOCC2)N2CCOCC2)cc1`, the activation is inactive: 4.09%.

On to `NC(=O)c1cc([N+](=O)[O-])cc([N+](=O)[O-])c1N`, for which the activation was inactive: -16%.

For `Oc1ccccc1CNc1ccccn1`, the activation is inactive: -0.109%.

On to `Cc1c2non([O-])c-2c(C)[n+](=O)[n+]1[O-]`, for which the activation was inactive: -3.39%.

For the molecule `O=C(NC(Sc1ccncn1)C(Cl)(Cl)Cl)c1ccccc1` (centres undefined), the activation was inactive: -2.6%.

As for `CC(C)CC(=O)NC(Sc1ccc(Cl)cc1)C(Cl)(Cl)Cl` (centres undefined), the activation was inactive: 1.54%.

As for `Nc1cc(N)c2nonc2c1[N+](=O)[O-]`, the activation was inactive: 1.98%.

As for `CCOP(=O)(Nc1ccccc1)OCC`, the activation is inactive: 3.96% and inactive: 3.25%.

Regarding `Cc1cc(SC(NC(=O)c2ccc(F)cc2)C(Cl)(Cl)Cl)ncn1` (centres undefined), the activation was inactive: -17.4%.

On to `Cc1ccc(NP(=O)(Oc2ccccc2F)Oc2ccccc2F)nc1`, for which the activation is inactive: 4.19%.

For `O=P(Nc1nc2ccc(Cl)cc2s1)(c1ccccc1)c1ccccc1`, the activation is inactive: 0.0364%.

For the molecule `O=C(O)c1ccccc1[As](=O)(O)O`, the activation was inactive: -12.5%.

As to `CC(=O)Nc1ccc([As](=O)(O)O)cc1`, the activation was inactive: -5.26%.

In the case of `Nc1cccc2ccc([As](=O)(O)O)cc12`, the activation is inactive: 18.7%.

As for `CCN(N=Nc1nonc1N)c1nonc1N`, the activation was inactive: -2.95%.

In the case of `O=C(Nc1cc([As](=O)(O)O)ccc1O)c1ccccc1`, the activation is inactive: -3.73%.

With `O=C(O)CNc1ccc([As](=O)(O)O)cc1`, the activation is inactive: 1.18%.

As for `O=[N+]([O-])c1cccc(NC2=NCC(CBr)S2)c1` (centres undefined), the activation is inactive: 1.56%.

Take `CC(C)(C)C(=O)NC(Sc1ccncn1)C(Cl)(Cl)Cl` (centres undefined): the activation was inactive: -3.65%.

Consider `Cc1ccc(NP(=O)(Oc2ccccc2)Oc2ccccc2)nc1`, for which the activation is inactive: 1.04%.

With `O=[N+]([O-])c1cc([N+](=O)[O-])c(CCNc2ccccc2)c([N+](=O)[O-])c1`, the activation is inactive: 3.71%.

Take `O=[N+]([O-])c1cccc2n[nH]nc12`: the activation was inactive: 0.545%.

For the molecule `CC(=O)N1C2C3N(C(C)=O)C1C1N(C(C)=O)C(C(N1C(C)=O)N3C(C)=O)N2C(C)=O`, the activation is inactive: -0.0404%.

`COc1ccc(C2=NCC(CBr)S2)cc1` (centres undefined): the activation was inactive: 13.7%.

For the molecule `CC1CCN(C(=O)Oc2c(Cl)cc(Cl)c3cccnc23)CC1`, the activation is inactive: -5.45%.

For the molecule `CC(C)=N/N=C(\N)N[N+](=O)[O-]`, the activation is inactive: -27.4%.

On to `CN(C)C(=O)OCCc1n(C)cc[n+]1C`, for which the activation was inactive: -4.42%.

With `CCN(/C(=N/P(=O)(N1CCOCC1)N1CCOCC1)N1CCOCC1)c1ccc(OC)cc1`, the activation was inactive: -1.78%.

For the molecule `Nc1ccc([As](=O)(O)c2ccc(N)cc2)cc1`, the activation was inactive: 2.92%.

Source of the values: PubChem BioAssay AID1631 (National Center for Advancing Translational Sciences (NCATS), 2009).
